In US6451784B1 (priority 1996, dated 2002):
Counter-ions that a name gives are not always drawn.

Tested on: adult beagle dogs
Settings: dog, in vivo

| SMILES | Clinical Condition | Clinical Pathology | Histopathology | Probable Dose-Limiting Toxicity | Probable dose limiting toxicity | White blood cell count | Effects within the respiratory tract | Systemic effects at the higher dose levels | Clinical conditions | Clinical pathology changes | Bioavailability (inhaled or intranasal) | Systemic bioavailability (inhaled or intranasal) |
| --- | --- | --- | --- | --- | --- | --- | --- | --- | --- | --- | --- | --- |
| CC[C@]1(O)C[C@H]2CN(CCc3c([nH]c4ccccc34)[C@@](C(=O)OC)(c3cc4c(cc3OC)N(C=O)[C@H]3[C@@](O)(C(=O)OC)[C@H](OC(C)=O)[C@]5(CC)C=CCN6CC[C@]43[C@@H]65)C2)C1 [Vincristine, vincristine] | Normal | ↓ WBC | Minimal-mild | Myelo- | – | – | – | – | – | – | – | – |
| COc1cccc2c1C(=O)c1c(O)c3c(c(O)c1C2=O)C[C@@](O)(C(=O)CO)C[C@@H]3O[C@H]1C[C@H](N)[C@H](O)[C@H](C)O1 [Doxorubicin, doxorubicin] | increased respiratory rate and mild transient pulmonary edema | ↓ WBC | – | Respiratory | respiratory tract toxicity | decrease in white blood cell count was noted for the higher dosages | – | – | – | – | – | – |
| CCC1=C[C@@H]2CN(C1)Cc1c([nH]c3ccccc13)[C@@](C(=O)OC)(c1cc3c(cc1OC)N(C)[C@H]1[C@@](O)(C(=O)OC)[C@H](OC(C)=O)[C@]4(CC)C=CCN5CC[C@]31[C@@H]54)C2 [Vinorelbine, vinorelbine tartrate] | Normal | ↓ WBC | Bone marrow | Myelo- | – | – | very minimal effects within the respiratory tract, characterized principally by slight inflammation | mild to moderate myelosuppression and lymphoid depletion | – | – | – | – |
| CC(=O)O[C@H]1C(=O)[C@@]2(C)[C@H]([C@H](OC(=O)c3ccccc3)[C@]3(O)C[C@H](OC(=O)[C@H](O)[C@@H](NC(=O)c4ccccc4)c4ccccc4)C(C)=C1C3(C)C)[C@]1(OC(C)=O)CO[C@@H]1C[C@@H]2O [Taxol, Paclitaxel] | Normal | ↓↓ WBC | – | – | myelosuppression and GI toxicity, and not pulmonary toxicity | – | – | – | normal | moderate white blood cell count reduction | Proportional | proportional to dose |
| COc1cc([C@@H]2c3cc4c(cc3[C@@H](O[C@@H]3O[C@@H]5CO[C@@H](C)O[C@H]5[C@H](O)[C@H]3O)[C@H]3COC(=O)[C@H]23)OCO4)cc(OC)c1O [Etoposide, etoposide] | Normal | No change | Mild-moderate | – | – | – | – | – | – | – | Moderate | – |
